# How the values were obtained:
# Protein sequences, listed by entry. Tags and fused reporters are not part of them.
# UniProt O14920, whole entry: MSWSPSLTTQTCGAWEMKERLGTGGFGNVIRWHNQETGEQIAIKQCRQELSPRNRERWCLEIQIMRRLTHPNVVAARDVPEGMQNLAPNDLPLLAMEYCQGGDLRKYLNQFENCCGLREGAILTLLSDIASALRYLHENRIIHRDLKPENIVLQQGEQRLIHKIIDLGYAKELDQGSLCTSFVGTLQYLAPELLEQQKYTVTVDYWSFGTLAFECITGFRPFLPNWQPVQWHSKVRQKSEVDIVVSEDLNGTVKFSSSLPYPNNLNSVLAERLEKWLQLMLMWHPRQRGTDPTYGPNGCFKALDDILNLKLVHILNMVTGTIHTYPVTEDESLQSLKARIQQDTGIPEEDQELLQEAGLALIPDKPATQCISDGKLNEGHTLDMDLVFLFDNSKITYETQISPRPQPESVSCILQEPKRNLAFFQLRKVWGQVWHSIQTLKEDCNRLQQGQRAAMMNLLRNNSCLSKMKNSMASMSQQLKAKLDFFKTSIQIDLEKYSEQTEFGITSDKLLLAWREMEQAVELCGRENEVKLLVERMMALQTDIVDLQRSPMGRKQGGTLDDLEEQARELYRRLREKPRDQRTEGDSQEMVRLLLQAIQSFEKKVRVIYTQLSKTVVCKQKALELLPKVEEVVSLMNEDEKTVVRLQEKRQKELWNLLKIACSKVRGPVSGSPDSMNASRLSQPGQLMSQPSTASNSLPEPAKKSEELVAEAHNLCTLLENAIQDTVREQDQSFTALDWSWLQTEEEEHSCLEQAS
# UniProt O15111, whole entry: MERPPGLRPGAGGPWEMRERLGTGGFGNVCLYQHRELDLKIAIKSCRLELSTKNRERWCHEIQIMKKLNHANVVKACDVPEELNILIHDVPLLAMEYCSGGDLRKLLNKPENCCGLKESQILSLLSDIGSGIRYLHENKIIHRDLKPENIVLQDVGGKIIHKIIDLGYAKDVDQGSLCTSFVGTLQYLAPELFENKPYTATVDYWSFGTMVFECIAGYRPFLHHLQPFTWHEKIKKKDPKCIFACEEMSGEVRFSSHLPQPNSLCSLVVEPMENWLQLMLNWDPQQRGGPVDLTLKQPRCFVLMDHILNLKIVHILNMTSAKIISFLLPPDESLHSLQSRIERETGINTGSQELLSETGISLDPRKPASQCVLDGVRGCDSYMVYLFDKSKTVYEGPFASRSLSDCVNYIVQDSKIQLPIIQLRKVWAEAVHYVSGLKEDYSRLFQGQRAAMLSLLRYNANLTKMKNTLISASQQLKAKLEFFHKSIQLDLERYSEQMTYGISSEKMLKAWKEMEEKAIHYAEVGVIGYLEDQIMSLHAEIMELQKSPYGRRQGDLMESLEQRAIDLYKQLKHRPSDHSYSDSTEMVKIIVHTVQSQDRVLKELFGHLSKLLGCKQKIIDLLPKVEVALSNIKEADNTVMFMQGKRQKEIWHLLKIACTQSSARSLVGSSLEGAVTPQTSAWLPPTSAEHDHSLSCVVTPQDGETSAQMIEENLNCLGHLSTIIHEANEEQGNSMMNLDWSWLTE
# [1] = molecular target: IKK alpha/beta (Homo sapiens, UniProt O14920+O15111); assay: Degradation of the IKK-complex in HeLa cells, Western blot with anti-IKK alpha/beta-antibody; details: for level of IKK alpha/beta protein: various concentrations, TNF alpha 20 ng/ml
# Protocol: 3×10^6 HeLa cells were incubated with different drugs at increasing concentrations for 1 h, washed twice with PBS and stimulated with 20 ng/ml TNF alpha (Roche). After 7 min the cells were washed twice with ice cold PBS followed by scraping and transferring into a 1.5 ml microcentrifuge tube. (After centrifugation by 2000 rpm for 2 min by 4° C. the PBS supernatant was removed and 200 μl Lyse-buffer (10 mM Hepes, pH 7.9, 0.1% NP40, 300 mM Sucrose, 10 mM KCl, 15 mM MgCl2, 1 mM DTT, 0.5 mM PMSF and antipain, aprotinin, leupeptin each 0.75 μg/ml (Sigma) was added to the pellet. The resuspented pellet was incubated on ice for 5 min and centrifuged at 13000 g for 30s.)
# Cytosolic extracts were isolated as described earlier.
# 30 μL cytosolic extract, approximately extract from 4×10^5 cells, was loaded to a 4-20% polyacrylamid gels (BioRad). After electrophoresis the proteins were transferred to a nitrocellulose membrane using the wet blotting technique. First the membrane was blocked with Roti-Block (Roth) and afterwards incubated with polyclonal antibodies against IKK alpha/beta or NEMO (both Santa Cruz Biotechnology, used at 1:200 dilution). This incubation was followed by the appropriate horseradish peroxidase-conjugated secondary antibody (Dianova) at 1:10000 dilution. Antibody binding was visualized on x-ray film using the Western blot Chemiluminescent Reagent Detection Kit (Santa Cruz).
# [2] = system: NF-kappaB; assay: Electrophoretic mobility shift assay (EMSA) for NF-kappaB in LPS stimulated THP-1 monocytic cells; details: THP-1 cells, 100 μM, 1 h, LPS 1 μg/ml
# Protocol: Electrophoretic Mobility Shift Assay (EMSA): THP-1 monocytic cells (DSM, Braunschweig, Germany) were maintained in suspension in RPMI 1640 (Glutamax-1, low endotoxin) containing 7% fetal calf serum (FCS) (Myoclone super plus, low endotoxin), 100 units/ml penicillin, and […] streptomycin (Life Technologies, Inc., Eggenstein, Germany). For the experiments, the cells were plated at a density of 3×10^6 per well in 6-well culture dishes. Nuclear extracts were prepared by harvesting cells by centrifugation at 1200 rpm for 7 min at 4° C. The cells were resuspended by adding 1 ml ice cold PBS and transferred into a microcentrifuge tube. After centrifugation at 2000 g for 2 min by 4° C. the pellet was lysed in 50 μl buffer A (10 mM Hepes, pH 7.9, 0.1% NP40, 10 mM, 300 mM Sucrose, 10 mM KCl, 15 mM MgCl2, 1 mM DTT, 0.5 mM PMSF and antipain, aprotinin, leupeptin each 0.75 μg/ml (Sigma)). […] The binding of Sp-1 and AP-1 was also analysed by EMSA using specific consensus oligonucleotides (Promega, Heidelberg, Germany) that were labeled with [γ-^32P]ATP (>5,000 Ci/mmol, NEN Life Science Products) and T4 polynucleotide kinase (Boehringer Mannheim). Gels were dried and analysed by autoradiography. […]
smiles,measurement,setting,value
CCOC(=O)C1=C(C)N=c2sc(=Cc3ccc(-c4cccc(C(=O)O)c4)o3)c(=O)n2C1c1cc(OC)c(OC)cc1Br (centres unmarked),IKKα/β degradation,[1]; 33 μM and 100 μM,obvious only at higher concentrations
same,IKKα/β decomposition at the highest concentration used,[1]; highest concentration used,No complete decomposition
same,level of IKK alpha/beta protein,[1]; listed as COM 73,concentration-dependently degraded
same,level of IKK alpha/beta protein,[1]; listed as compound 73,dose dependently reduced
same,reduced NF-kappaB-release,[2],80%
